Values joined by “and” are separate entries in the source; they are usually repeats but may differ in a detail not shown here. Identical values can stand only once. Like-named read-outs stand apart in the source and are kept apart here.
Legend:
[1] = biological target: human α-Syn fibrils (Homo sapiens, UniProt P37840); test: Saturation binding of [3H]BF-227 to α-Syn fibrils (filtration); conditions: tested as the radiolabelled form; for Bmax, [3H]BF-227 binding to α-Syn fibrils (mean): pmoles tracer per nmoles fibril (as monomer), b21 prints pmole/nmole
[2] = biological target: Aβ1-42 fibrils (Homo sapiens, UniProt P05067); test: Saturation binding of [3H]BF-227 to Aβ1-42 fibrils (filtration); conditions: tested as the radiolabelled form; for Bmax, [3H]BF-227 binding to Aβ fibrils (mean): pmoles tracer per nmoles fibril (as monomer), mean and SD, n=3
[3] = Table S1, individual values, listed as [3H]BF-227

Amino acid sequences for entries named in this document (tags omitted). Residues count along the entry.
UniProt P05067, 672-713 limits assumed: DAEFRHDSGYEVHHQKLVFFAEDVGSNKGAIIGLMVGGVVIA

CN(C)c1ncc(/C=C/c2nc3ccc(OCCF)cc3o2)s1
Bmax (pmol/nmol), α-Syn fibrils, individual experiments [1, 3]: 13.5 pmol/nmol and 12.0 pmol/nmol
Bmax, [3H]BF-227 binding to α-Syn fibrils (mean) ([1]; mean and SD, n=2): 12.7 (1.1) pmol/nmol
Bmax, [3H]BF-227 binding to α-Syn fibrils (mean) ([1]; mean and SD, n=2, listed as [3H]BF-227): 12.7 ± 1.1 pmol/nmol
Kd ([1]; read-out: KD (nM), α-Syn fibrils, individual experiments, Table S1, individual values, listed as [3H]BF-227): 47.7 nM and 43.8 nM
Kd ([1]; read-out: KD, [3H]BF-227 binding to α-Syn fibrils (mean), saturation binding, single-site model, mean and SD, n=2): 46 nM
Bmax (pmol/nmol), Aβ1-42 fibrils, individual experiments [2, 3]: 21.3 pmol/nmol and 20.7 pmol/nmol and 16.3 pmol/nmol
Bmax, [3H]BF-227 binding to Aβ fibrils (mean) [2]: 19.4 (2.7) pmol/nmol
Bmax, [3H]BF-227 binding to Aβ fibrils (mean) ([2]; listed as [3H]BF-227): 19.4 ± 2.7 pmol/nmol
Kd ([2]; read-out: KD (nM), Aβ1-42 fibrils, individual experiments, Table S1, individual values, listed as [3H]BF-227): 18.5 nM and 13.2 nM and 15.4 nM

Source: article PMC6144582, “The Binding of BF-227-Like Benzoxazoles to Human α-Synuclein and Amyloid β Peptide Fibrils” (Molecular Imaging, 2018)
